Test results: patent publication US20260124309A1, “STAT6 DEGRADERS AND USES THEREOF” (Kymera Therapeutics, Inc., priority 2023, published 2026)

The chains behind the UniProt entries cited, without tags or fusion partners. Residues count along the entry.
UniProt P42226, whole entry: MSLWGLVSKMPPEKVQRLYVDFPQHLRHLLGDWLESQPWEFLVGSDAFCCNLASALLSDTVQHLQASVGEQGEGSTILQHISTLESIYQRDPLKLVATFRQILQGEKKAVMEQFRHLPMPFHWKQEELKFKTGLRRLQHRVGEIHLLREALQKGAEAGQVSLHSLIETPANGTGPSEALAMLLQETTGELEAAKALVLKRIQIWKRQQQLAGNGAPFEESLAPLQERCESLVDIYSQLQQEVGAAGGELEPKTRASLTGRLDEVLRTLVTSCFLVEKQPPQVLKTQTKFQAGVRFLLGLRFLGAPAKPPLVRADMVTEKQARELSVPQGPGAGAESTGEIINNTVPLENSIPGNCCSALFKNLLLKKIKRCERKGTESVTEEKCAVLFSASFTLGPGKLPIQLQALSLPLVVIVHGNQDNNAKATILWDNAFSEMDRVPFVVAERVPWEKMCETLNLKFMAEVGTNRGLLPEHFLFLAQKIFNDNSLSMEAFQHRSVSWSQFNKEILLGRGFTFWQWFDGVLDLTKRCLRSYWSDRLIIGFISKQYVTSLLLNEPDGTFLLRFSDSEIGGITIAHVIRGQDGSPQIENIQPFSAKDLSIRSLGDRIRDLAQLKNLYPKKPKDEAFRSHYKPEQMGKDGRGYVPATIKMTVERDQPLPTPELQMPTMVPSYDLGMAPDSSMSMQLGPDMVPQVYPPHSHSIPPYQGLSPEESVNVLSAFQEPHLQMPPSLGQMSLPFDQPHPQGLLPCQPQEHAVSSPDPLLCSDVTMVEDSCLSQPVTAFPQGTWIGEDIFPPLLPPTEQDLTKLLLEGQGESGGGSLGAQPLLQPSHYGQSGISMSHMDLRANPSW
UniProt P42226, 123-632 limits assumed: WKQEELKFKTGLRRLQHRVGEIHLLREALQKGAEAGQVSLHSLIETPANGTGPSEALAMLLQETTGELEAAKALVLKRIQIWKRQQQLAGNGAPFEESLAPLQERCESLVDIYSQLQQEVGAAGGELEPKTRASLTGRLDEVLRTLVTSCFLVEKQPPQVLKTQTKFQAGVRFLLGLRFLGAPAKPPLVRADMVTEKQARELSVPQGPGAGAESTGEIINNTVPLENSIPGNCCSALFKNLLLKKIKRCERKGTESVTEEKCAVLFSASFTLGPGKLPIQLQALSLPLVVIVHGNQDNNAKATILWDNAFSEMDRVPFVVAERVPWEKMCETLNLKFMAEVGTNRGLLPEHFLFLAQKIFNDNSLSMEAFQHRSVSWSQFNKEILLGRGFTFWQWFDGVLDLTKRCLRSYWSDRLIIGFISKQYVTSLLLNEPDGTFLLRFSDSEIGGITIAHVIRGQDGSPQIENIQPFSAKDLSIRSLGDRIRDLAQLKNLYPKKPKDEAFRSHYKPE

Tests used:
STAT6 = STAT6 (Homo sapiens, UniProt P42226); experiment: STAT6 MSD degradation in A549 cells; details: for DC50: read-out: STAT6 MSD degradation DC50 (nM) 24 h
Procedure: Degradation of STAT6 in cells was quantitatively measured using Meso Scale Discovery (MSD) technology. A549 cells were seeded in 96-well plates with a density of 1.5×10e4 to 5×10e5 cells per well in 100 μl fresh media. Compounds were then added to the assay plates with a final top concentration of up to 10 uM in a 1:3 dilution series with total of 9 doses. The assay plates were then incubated for 4 to 24 hours at 37° C. under 5% CO2. The assay plates were then centrifuged for 5 minutes and the cell pellets were treated with 100 μl/well RIPA lysis buffer (Boston Bioproducts, BP-115D) with protease and phosphatase inhibitors (Roche, 05892791001 and 04906837001). To prepare the MSD assay plates (MSD, L15XA), the plates were coated with the capture antibody (Abnova, H00006778) in PBS, at 40 μl/well. The plates were then incubated overnight at 4° C., washed 1 time with 150 μl/well TBST buffer (Cell Signaling Technology, #9997S) and blocked with 150 μl/well blocking buffer (MSD, R93BA-4). Cell lysates were then added to MSD assay plates and the plates were incubated at room temperature for 1 hour. The plates were then washed 3 times with 150 μl/well TBST buffer and 25 μl/well primary detection antibody (Cell Signaling Technology, #5397S). The assay plates were then incubated at room temperature for 1 hour, washed 3 times with 150 μl/well TBST buffer, and 25 μl/well secondary detection antibody, SULFO-TAG anti-rabbit antibody (MSD, R32AB-1) were added. The assay plates were then incubated at room temperature for 1 hour, washed 3 times with 150 μl/well TBST buffer, and 150 μl/well MSD reading buffer (MSD, R92TC-2) were added. The plates were then analyzed by an MSD reader. The data was analyzed by GraphPad Prism and the dose dependent STAT6 degradation was fit using the four-parameter inhibitor vs. response nonlinear regression.
The letter codes for DC50 (nM) include: A (<1 nM); B (1-10 nM); C (>10-100 nM); D (>100-1000 nM); E (>1000 nM); and F (not tested). The letter codes for Dmax (oo) include: A (>90%); B (>70-90%); C (>50-70%); D ([…]); and F (not tested).

[1] = biological target: biotinylated truncated STAT6 (123-632)-avi (Homo sapiens, UniProt P42226); experiment: STAT6 HTRF binding assay; details: read-out: STAT6 HTRF: Average IC50, 0.15 nM biotinylated truncated STAT6 (123-632)-avi, 20 nM fluorescein-labeled probe
Procedure: HTRF binding assays were performed using 0.15 nM biotinylated truncated STAT6 (123-632)-avi purified from E. coli, 1× Streptavidin-terbium (CisBio) prepared by mixing SA-Tb in PPI detection buffer (CisBio), 20 nM proprietary fluorescein-labeled probe, and test compounds in assay buffer consisting of 50 mM HEPES-Na pH 7.5, 100 mM NaCl, 1 mM EDTA, 2 mM DTT, 0.1% Tween-20 with a final volume of 20 uL. Compound stocks were dissolved at 10 mM in 100% DMSO and 11 point titration with 3 fold serial dilution was performed in white, opaque 384 well microplates. Reaction plates were incubated at room temperature for 30 minutes. Plates were centrifuged at low rpm for 5 mins, and the ratio of fluorescence intensities were measured at emission wavelengths for fluorescein acceptor (520 nm) and terbium donor (495 nm) on Envision Plate reader. % Inhibition was calculated from the 520/495 ratio generated by using proprietary positive control compound for 100% inhibition and DMSO only reactions for 0% inhibition. Data was processed and dose response curves were generated using GraphPad Prism to determine the concentration required for inhibiting 50% of the HTRF signal (IC50).
The letter codes for IC50 (μM) include: A (<0.1 μM); B (0.1-1 μM); C (>1-10 μM); D (>10-100 μM); E (>100 μM); and F (not tested).

Row | Compound | STAT6 MSD degradation Dmax % 24 h (STAT6) | DC50 (STAT6) [nM] | IC50 ([1]; HTRF binding) [nM] | IC50 ([1]; 30 minutes at room temperature) [nM]
1 | CN(C)C(=O)c1cc2c(-c3ccc(N4CCN(c5ccc(C6CCC(=O)NC6=O)cc5F)CC4)cc3)cc(C3=CCCN(C(=O)CCn4cccn4)C3)c(F)c2[nH]1 (stereo not shown) | A (A (>90%)) | < 1 | < 100 | –
2 | CN(C)C(=O)c1cc2c(-c3ccc(C4CCN(c5c(F)cc(C6CCC(=O)NC6=O)cc5F)CC4)cc3)cc([C@H]3CCCN(C(=O)CCn4cccn4)C3)c(F)c2[nH]1 (stereo partly shown) | A (A (>90%)) | 1 to 10 | 1000 to 10000 | –
3 | CN(C)C(=O)c1cc2c(-c3ccc(C4CCN(c5cc(F)c(C6CCC(=O)NC6=O)cc5F)CC4)cc3)cc([C@H]3CCCN(C(=O)CCn4cccn4)C3)c(F)c2[nH]1 (stereo partly shown) | A (A (>90%)) | 1 to 10 | 100 to 1000 | –
4 | COc1cc(N2CCN(c3ccc(-c4cc(C5=CCCN(C(=O)CCn6cccn6)C5)c(F)c5[nH]c(C(=O)N(C)C)cc45)c(C4CC4)c3)CC2)c(F)cc1NC1CCC(=O)NC1=O (stereo not shown) | B (B (>70-90%)) | < 1 | < 100 | –
5 | CN(C)C(=O)c1cc2c(-c3ccc(C4CCN(c5cc(F)c(C6CCC(=O)NC6=O)c(F)c5)CC4)cc3)cc(C3=CCCN(C(=O)CCn4cccn4)C3)c(F)c2[nH]1 (stereo not shown) | A (A (>90%)) | < 1 | 100 to 1000 | –
6 | COc1cc(N2CCN(c3cc(F)c(-c4cc(C5=CCCN(C(=O)CCn6ccnn6)C5)c(F)c5[nH]ncc45)cc3F)CC2)c(F)cc1NC1CCC(=O)NC1=O (stereo not shown) | B (B (>70-90%)) | 10 to 100 | 1000 to 10000 | –
7 | COc1cc(C2CCN(c3cc(F)c(-c4cc([C@H]5CCCN(C(=O)CCn6cccn6)C5)c(F)c5[nH]c(C(=O)N(C)C)cc45)cc3F)CC2)c(F)cc1NC1CCC(=O)NC1=O (stereo partly shown) | A (A (>90%)) | 1 to 10 | 1000 to 10000 | –
8 | CN(C)C(=O)c1cc2c(-c3ccc(C4CCN(c5ccc(NC6CCC(=O)NC6=O)cc5F)CC4)cc3)cc([C@H]3CCCN(C(=O)CCn4ccnn4)C3)c(F)c2[nH]1 (stereo partly shown) | B (B (>70-90%)) | < 1 | < 100 | –
9 | CC(C)C(=O)N1CCC=C(c2cc(-c3ccc(N4CCN(CCc5cccc6c5n(C)c(=O)n6C5CCC(=O)NC5=O)CC4)cc3OC(F)F)c3cc(C(=O)N(C)C)[nH]c3c2F)C1 (stereo not shown) | A (A (>90%)) | < 1 | – | 100 to 1000
10 | CN(C)C(=O)c1cc2c(-c3ccc(N4CCN(CCc5cccc6c(C7CCC(=O)NC7=O)nn(C)c56)CC4)cc3)cc(C3=CCCN(C(=O)CCn4cccn4)C3)c(F)c2s1 (stereo not shown) | A (A (>90%)) | 1 to 10 | 100 to 1000 | –
11 | COc1cc(N2CCN(c3ccc(-c4cc(C5=CCCN(C(=O)CCn6cccn6)C5)c(F)c5[nH]c(C(=O)N(C)C)cc45)c(C#N)c3)CC2)c(F)cc1NC1CCC(=O)NC1=O (stereo not shown) | A (A (>90%)) | < 1 | < 100 | –
12 | COc1cc(N2CCN(CCc3ccc(C4CCC(=O)NC4=O)cc3F)CC2=O)ccc1-c1cc(C2=CCCN(C(=O)CCn3ccnn3)C2)c(F)c2[nH]c(C(=O)N(C)C)cc12 (stereo not shown) | A (A (>90%)) | < 1 | < 100 | –
13 | COc1cc(N2CCN(CCc3ccc(C4CCC(=O)NC4=O)cc3F)CC2)ccc1-c1cc(C2=CCCN(C(=O)CCn3cccn3)C2)c(F)c2cc(C(=O)N(C)C)oc12 (stereo not shown) | A (A (>90%)) | < 1 | – | < 100
14 | COc1cc(C2CCN(c3ccc(-c4cc(C5=CCCN(C(=O)CCn6cccn6)C5)c(F)c5[nH]c(C(=O)N(C)C)cc45)cc3)CC2)c(F)cc1NC1CCC(=O)NC1=O (stereo not shown) | A (A (>90%)) | < 1 | 100 to 1000 | –
15 | COc1cc(N2CCN(CCOCCOCCOc3ccc(C(=O)c4c(-c5c(F)ccc(F)c5C)c(C(=O)N[C@@H](CS(C)(=O)=O)c5cccc(Cl)c5)cn4C)cc3)CC2)ccc1-c1cc(C2=CCCN(C(=O)CCn3ccnn3)C2)c(F)c2[nH]c(C(=O)N(C)C)cc12 | – | – | < 100 | –
16 | COc1cc(N2CCN(CCCCCCCCc3ccc(C(=O)c4c(-c5c(F)ccc(F)c5C)c(C(=O)N[C@@H](CC#N)c5cccc(Cl)c5)cn4C)cc3)CC2)ccc1-c1cc(C2=CCCN(C(=O)CCn3ccnn3)C2)c(F)c2[nH]c(C(=O)N(C)C)cc12 | – | – | < 100 | –
17 | COc1cc(N2CCN(CCOCC[C@H]3CN(c4cc(N5CCCCC5)ccn4)[C@H]4CCCN(c5cccc(F)c5)[C@@H]34)CC2)ccc1-c1cc(C2=CCCN(C(=O)CCn3ccnn3)C2)c(F)c2[nH]c(C(=O)N(C)C)cc12 (single isomer, unassigned) | – | – | < 100 | –
18 | COc1cc(N2CCN(CCCCCCc3ccc(C(=O)c4c(-c5c(F)ccc(F)c5C)c(C(=O)N[C@@H](CS(C)(=O)=O)c5cccc(Cl)c5)cn4C)cc3)CC2)ccc1-c1cc(C2=CCCN(C(=O)CCn3ccnn3)C2)c(F)c2[nH]c(C(=O)N(C)C)cc12 | – | – | < 100 | –
19 | COc1cc(N2CCN(CCCCCCC3CCN(c4ccnc(N5CC[C@@H]6[C@H]5CCCN6c5cccc(F)c5)c4)CC3)CC2)ccc1-c1cc(C2=CCCN(C(=O)CCn3ccnn3)C2)c(F)c2[nH]c(C(=O)N(C)C)cc12 | – | – | < 100 | –
20 | COc1cc(N2CCN(CCCN(C)CCC3CCN(c4ccnc(N5CC[C@@H]6[C@H]5CCCN6c5cccc(F)c5)c4)CC3)CC2)ccc1-c1cc(C2=CCCN(C(=O)CCn3ccnn3)C2)c(F)c2[nH]c(C(=O)N(C)C)cc12 | – | – | < 100 | –
21 | COc1cc(N2CCN(C3CCN(CC#Cc4ccc(C(=O)c5c(-c6c(F)ccc(F)c6C)c(C(=O)N[C@@H](CS(C)(=O)=O)c6cccc(Cl)c6)cn5C)cc4)CC3)CC2)ccc1-c1cc(C2=CCCN(C(=O)CCn3ccnn3)C2)c(F)c2[nH]c(C(=O)N(C)C)cc12 | – | – | < 100 | –
22 | COc1cc(N2CCN(CCOCCOCC[C@H]3CN(c4cc(N5CCCCC5)ccn4)[C@H]4CCCN(c5cccc(F)c5)[C@@H]34)CC2)ccc1-c1cc(C2=CCCN(C(=O)CCn3ccnn3)C2)c(F)c2[nH]c(C(=O)N(C)C)cc12 (single isomer, unassigned) | – | – | < 100 | –
23 | COc1cc(N2CCN(CCOCCOCCOCCOc3ccc(C(=O)c4c(-c5c(F)ccc(F)c5C)c(C(=O)N[C@@H](CS(C)(=O)=O)c5cccc(Cl)c5)cn4C)cc3)CC2)ccc1-c1cc(C2=CCCN(C(=O)CCn3ccnn3)C2)c(F)c2[nH]c(C(=O)N(C)C)cc12 | – | – | < 100 | –
24 | COc1cc(N2CCN(CCOCC[C@H]3CN(c4cc(N5CCCCC5)ccn4)[C@@H]4CCCN(c5cccc(F)c5)[C@H]34)CC2)ccc1-c1cc(C2=CCCN(C(=O)CCn3ccnn3)C2)c(F)c2[nH]c(C(=O)N(C)C)cc12 (single isomer, unassigned) | – | – | < 100 | –
25 | COc1cc(N2CCN(CCCCCCCCc3ccc(C(=O)c4c(-c5c(F)ccc(F)c5C)c(C(=O)N[C@@H](CS(C)(=O)=O)c5cccc(Cl)c5)cn4C)cc3)CC2)ccc1-c1cc(C2=CCCN(C(=O)CCn3ccnn3)C2)c(F)c2[nH]c(C(=O)N(C)C)cc12 | – | – | < 100 | –
26 | COc1cc(N2CCN(CCOCC[C@@H]3CN(c4cc(N5CCCCC5)ccn4)[C@H]4CCCN(c5cccc(F)c5)[C@@H]34)CC2)ccc1-c1cc(C2=CCCN(C(=O)CCn3ccnn3)C2)c(F)c2[nH]c(C(=O)N(C)C)cc12 (single isomer, unassigned) | – | – | < 100 | –
27 | COc1cc(N2CCN(CCOCCCc3ccc(C(=O)c4[nH]cc(C(=O)N[C@@H](CC(N)=O)c5cccc(Cl)c5)c4-c4c(F)ccc(F)c4C)cc3)CC2)ccc1-c1cc(C2=CCCN(C(=O)CCn3ccnn3)C2)c(F)c2[nH]c(C(=O)N(C)C)cc12 | – | – | < 100 | –

Where two headings read alike, the source gives them in different places.
